One assay has as its target Cannabinoid receptor 1 (Homo sapiens, UniProt P21554). The assay can be described thus: Binding affinity to CB1 receptor (unknown origin).
A further assay has as its target Cannabinoid receptor 2 (Homo sapiens, UniProt P34972). Kind of assay: Binding affinity to CB2 receptor (unknown origin).
Assay [1] is filed under the species Homo sapiens. The assay can be described thus: Selectivity index, ratio of EC50 for human CB1 receptor to Ki for human CB2 receptor.
The species entered for assay [2] is Homo sapiens. The assay can be described thus: Selectivity index, ratio of Ki for CB1 receptor (unknown origin) to Ki for CB2 receptor (unknown origin). The settings on record: tested as the 11C-labelled form.

By UniProt entry, the sequences of proteins in these tests, tags left out.
UniProt P21554, whole entry: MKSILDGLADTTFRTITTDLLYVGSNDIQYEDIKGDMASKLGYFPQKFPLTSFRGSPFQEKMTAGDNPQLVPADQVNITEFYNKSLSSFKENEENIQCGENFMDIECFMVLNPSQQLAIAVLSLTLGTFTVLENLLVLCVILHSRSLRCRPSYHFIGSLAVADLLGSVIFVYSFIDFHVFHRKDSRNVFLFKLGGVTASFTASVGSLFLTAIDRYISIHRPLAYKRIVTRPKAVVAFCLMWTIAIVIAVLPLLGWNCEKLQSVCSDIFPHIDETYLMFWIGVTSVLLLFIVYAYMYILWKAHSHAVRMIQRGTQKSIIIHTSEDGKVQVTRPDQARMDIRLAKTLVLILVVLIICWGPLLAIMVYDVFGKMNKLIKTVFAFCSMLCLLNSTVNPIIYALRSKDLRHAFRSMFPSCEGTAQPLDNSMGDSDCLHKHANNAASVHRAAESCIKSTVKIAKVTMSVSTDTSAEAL
UniProt P34972, whole entry: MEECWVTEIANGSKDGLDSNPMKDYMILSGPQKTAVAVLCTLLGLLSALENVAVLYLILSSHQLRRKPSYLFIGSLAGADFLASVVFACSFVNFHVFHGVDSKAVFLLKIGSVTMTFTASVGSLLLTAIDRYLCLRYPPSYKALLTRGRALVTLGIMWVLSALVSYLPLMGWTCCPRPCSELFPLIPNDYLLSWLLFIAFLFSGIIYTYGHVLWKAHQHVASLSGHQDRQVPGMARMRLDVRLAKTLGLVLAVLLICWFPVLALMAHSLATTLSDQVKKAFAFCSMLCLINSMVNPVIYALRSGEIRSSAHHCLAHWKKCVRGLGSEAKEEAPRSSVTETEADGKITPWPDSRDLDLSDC

The structures appear in SMILES notation. pKi: −log10 of the molar value.

What is called pKi is the negative decadic logarithm of the Ki, by convention in mol/L. A low value points to a large Ki. For the compound `[11CH3]OC(=O)c1c(NC(=O)C23CC4CC(CC(O)(C4)C2)C3)sc2c1CCCC2`, the pKi at Cannabinoid receptor 1 was 6.00; on Cannabinoid receptor 2, 8.48.

With `CC(C)[C@H](NC(=O)c1nn(Cc2ccc(F)cc2)c2ccccc12)C(N)=O`, the Ratio EC50 in the assay filed under Homo sapiens [1] was in the range of 1.5 to 3.2. For `COC(=O)c1c(NC(=O)C23CC4CC(CC(O)(C4)C2)C3)sc2c1CCCC2`, the Ratio Ki in the assay filed under Homo sapiens [2] turned out to be 303. On to `CCOCCn1cc(C(=O)NC23CC4CC(CC(C4)C2)C3)c(=O)c2cccc(O[11CH3])c21`, for which the pKi at Cannabinoid receptor 2 is 9.15.

Source of the values: ChEMBL document CHEMBL4028847, “Perspectives of Cannabinoid Type 2 Receptor (CB2R) Ligands in Neurodegenerative Disorders: Structure-Affinity Relationship (SAfiR) and Structure-Activity Relationship (SAR) Studies” (J Med Chem, 2017).
